Experiment: Oral LD50 in mice

For “(5-Phenyl-1,2,4-thiadiazol)-3-yl thiourea [Compound]”, the “oral LD50” value was “greater than 6000 mg/kg”.

Reference: patent publication US6340696B1, “Viral treatment” (The Procter & Gamble Company, priority 1999, dated 2002)
